In article PMC5681660, “Reduced hepatitis B and D viral entry using clinically applied drugs as novel inhibitors of the bile acid transporter NTCP” (Scientific Reports, 2017):
Where a name gives a salt, the structure may show the parent alone.

target: T1, human NTCP (Homo sapiens, UniProt Q14973); assay: Screening fluorescent competitive Myrcludex B-FITC binding assay (96-well, 10 µM drug); details: 0.5 h, read-out: %NTCP binding
T1 sequence (Q14973 1-349): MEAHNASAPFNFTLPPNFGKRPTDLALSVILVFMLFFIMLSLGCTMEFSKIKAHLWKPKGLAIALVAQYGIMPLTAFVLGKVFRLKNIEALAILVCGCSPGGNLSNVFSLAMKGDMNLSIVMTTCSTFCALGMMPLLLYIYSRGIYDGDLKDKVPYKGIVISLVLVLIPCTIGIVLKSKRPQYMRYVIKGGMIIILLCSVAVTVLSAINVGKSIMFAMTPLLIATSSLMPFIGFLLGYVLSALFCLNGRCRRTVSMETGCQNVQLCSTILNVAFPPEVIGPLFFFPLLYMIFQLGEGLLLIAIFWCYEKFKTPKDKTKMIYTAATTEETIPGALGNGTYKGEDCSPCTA

| SMILES | remaining activity at 10 µM |
| --- | --- |
| CC1CS(=O)(=O)CCN1/N=C/c1ccc([N+](=O)[O-])o1 (stereo not drawn) [Nifurtimox] | 96.2% |
| CN(C/C=C/c1ccccc1)Cc1cccc2ccccc12 [Naftifine hydrochloride] | 105% |

same assay, conditions: 0.5 h, read-out: %NTCP binding, screening Myrcludex B-FITC binding, 10 µM drug, Prestwick library

| SMILES | remaining activity at 10 µM |
| --- | --- |
| C[n+]1ccccc1/C=N/O [Pralidoxime chloride] | 85.8% |
| O=c1[nH]c2ccccc2n1CCCN1CCC(n2c(=O)[nH]c3cc(Cl)ccc32)CC1 [Domperidone] | 71.7% |
| CC(=O)O[C@H]1C[C@H](O[C@H]2[C@@H](O)C[C@H](O[C@H]3[C@@H](O)C[C@H](O[C@H]4CC[C@@]5(C)[C@H](CC[C@@H]6[C@@H]5C[C@@H](O)[C@]5(C)[C@@H](C7=CC(=O)OC7)CC[C@]65O)C4)O[C@@H]3C)O[C@@H]2C)O[C@H](C)[C@H]1O[C@@H]1O[C@H](CO)[C@@H](O)[C@H](O)[C@H]1O [Lanatoside C] | 89.7% |
| C=C1CC[C@@]2(O)[C@H]3Cc4ccc(O)c5c4[C@@]2(CCN3CC2CC2)[C@H]1O5 [Nalmefene hydrochloride] | 79.8% |
| COc1ccc(OC)c(C(O)C(C)N)c1 (stereo not drawn) [Methoxamine hydrochloride] | 87.3% |

same assay, conditions: screening Myrcludex B-FITC binding, 10 µM drug

| SMILES | B-score binding assay |
| --- | --- |
| C[N+]1(C)CCOC(O)(c2ccc(-c3ccc(C4(O)C[N+](C)(C)CCO4)cc3)cc2)C1.[Br-].[Br-] (stereo not drawn) [Hemicholinium bromide] | 1.023 |
| C[n+]1ccccc1/C=N/O [Pralidoxime chloride] | -0.067 |
| CCC(=O)O[C@]1(C(=O)CCl)[C@@H](C)C[C@H]2[C@@H]3CCC4=CC(=O)C=C[C@]4(C)[C@@]3(F)[C@@H](O)C[C@@]21C [Clobetasol propionate] | -0.984 |
| CN1CCCC(CC2c3ccccc3Sc3ccccc32)C1 (stereo not drawn) [Metixene hydrochloride] | -0.556 |
| COc1cc(C(=O)NS(=O)(=O)c2ccccc2C)ccc1Cc1cn(C)c2ccc(NC(=O)OC3CCCC3)cc12 [Zafirlukast] | -15.088 |
| C[C@@H]1CCC[C@H](C)N1NC(=O)c1ccc(Cl)c(S(N)(=O)=O)c1 [Clopamide] | -2.187 |
| O=C(C1CCCCC1)N1CC(=O)N2CCc3ccccc3C2C1 (stereo not drawn) [Praziquantel] | -1.104 |
| CC1Cc2ccccc2N1NC(=O)c1ccc(Cl)c(S(N)(=O)=O)c1 (stereo not drawn) [Indapamide] | -0.039 |
| C=CC1=C(C(=O)O)N2C(=O)[C@@H](NC(=O)/C(=N\OCC(=O)O)c3csc(N)n3)[C@H]2SC1 [Cefixime] | -0.722 |
| C[C@@H](O[C@H]1OCCN(Cc2n[nH]c(=O)[nH]2)[C@H]1c1ccc(F)cc1)c1cc(C(F)(F)F)cc(C(F)(F)F)c1 [Aprepitant] | -0.884 |
| O=C(Nc1cccc2c(=O)cc(-c3nnn[nH]3)oc12)c1ccc(OCCCCc2ccccc2)cc1 [Pranlukast] | -0.508 |
| CCc1cc(C(N)=S)ccn1 [Ethionamide] | -2.732 |
| Clc1ccccc1C(c1ccccc1)(c1ccccc1)n1ccnc1 [Clotrimazole] | -1.322 |
| CO[C@H]1/C=C/O[C@@]2(C)Oc3c(C)c(O)c4c(O)c(c(/C=N/N5CCN(C6CCCC6)CC5)c(O)c4c3C2=O)NC(=O)/C(C)=C\C=C\[C@H](C)[C@H](O)[C@@H](C)[C@@H](O)[C@@H](C)[C@H](OC(C)=O)[C@@H]1C [Rifapentine] | -2.82 |
| Clc1ccc2c(c1)C(N1CCNCC1)=Nc1ccccc1O2 [Amoxapine] | -0.467 |
| CO[C@@]1(NC(=O)C(C(=O)O)c2ccc(O)cc2)C(=O)N2C(C(=O)O)=C(CSc3nnnn3C)CO[C@@H]21 (stereo partly drawn) [Moxalactam disodium salt] | 1.82 |
| CC(C)(C(=O)O)c1ccc(C(O)CCCN2CCC(C(O)(c3ccccc3)c3ccccc3)CC2)cc1 (stereo not drawn) [Fexofenadine HCl] | -0.157 |
| CCCOc1ccccc1-c1nc2nn[nH]c2c(=O)[nH]1 [Zaprinast] | -0.971 |
| Cc1onc(-c2ccccc2Cl)c1C(=O)N[C@@H]1C(=O)N2[C@@H]1SC(C)(C)[C@@H]2C(=O)[O-].[Na+] [Cloxacillin sodium salt] | -2.225 |
| NS(=O)(=O)c1cc(C(=O)O)cc(N2CCCC2)c1Oc1ccccc1 [Piretanide] | 0.068 |
| CC(C)NCC(O)COc1ccc(COCCOC(C)C)cc1 (stereo not drawn) [Bisoprolol fumarate] | -2.08 |
| CCOC(=O)O[C@]1(C(=O)OCCl)CC[C@H]2[C@@H]3CCC4=CC(=O)C=C[C@]4(C)[C@H]3[C@@H](O)C[C@@]21C [Loteprednol etabonate] | -0.063 |
| C[C@]1(Cn2ccnn2)[C@H](C(=O)O)N2C(=O)C[C@H]2S1(=O)=O [Tazobactam] | -0.729 |
| CN1CCN(C(=O)OC2c3nccnc3C(=O)N2c2ccc(Cl)cn2)CC1 (stereo not drawn) [Zopiclone] | -1.891 |
| CC(=O)N(CC(O)CN(C(C)=O)c1c(I)c(C(=O)NCC(O)CO)c(I)c(C(=O)NCC(O)CO)c1I)c1c(I)c(C(=O)NCC(O)CO)c(I)c(C(=O)NCC(O)CO)c1I (stereo not drawn) [Iodixanol] | -2.68 |
| C[C@]12CC[C@@H]3c4ccc(O)cc4CC[C@H]3[C@@H]1C[C@@H](O)[C@@H]2O [Estriol] | -0.389 |

| SMILES | B-score binding assay |
| --- | --- |
| C[C@@H]1[C@H](O)[C@@H](C)/C=C/C=C/C=C/C=C/C=C/C=C/C=C/[C@H](O[C@@H]2O[C@H](C)[C@@H](O)[C@H](N)[C@@H]2O)C[C@@H]2O[C@](O)(C[C@@H](O)C[C@@H](O)[C@H](O)CC[C@@H](O)C[C@@H](O)CC(=O)O[C@H]1C)C[C@H](O)[C@H]2C(=O)O [Amphotericin B] | -0.794 |
| COc1ccccc1OCC(O)CN1CCN(CC(=O)Nc2c(C)cccc2C)CC1 (stereo not drawn) [Ranolazine] | -0.712 |
| O=c1[nH]c2ccccc2n1CCCN1CCC(n2c(=O)[nH]c3cc(Cl)ccc32)CC1 [Domperidone] | 1.228 |
| CCCCOc1ccc(CC(=O)NO)cc1 [Bufexamac] | -1.159 |
| C/C=C(\C)C(=O)O[C@H]1[C@H](OC(C)=O)[C@@]2(CO)C(CC1(C)C)C1=CC[C@@H]3[C@@]4(C)CC[C@H](O[C@@H]5O[C@H](C(=O)O)[C@@H](O[C@@H]6O[C@H](CO)[C@@H](O)[C@H](O)[C@H]6O)[C@H](O)[C@H]5O[C@@H]5O[C@H](CO)[C@@H](O)[C@H](O)[C@H]5O)[C@H](CO)C4CC[C@@]3(C)[C@@]1(C)C[C@H]2O (stereo partly drawn) [Beta-Escin] | -8.467 |
| CCN(CC)CCNc1ccc(CO)c2sc3ccccc3c(=O)c12 [Hycanthone] | -0.124 |
| C[C@H](CCC(=O)O)[C@H]1CC[C@H]2[C@@H]3[C@@H](O)C[C@@H]4C[C@H](O)CC[C@]4(C)[C@H]3CC[C@]12C [Urosiol] | -0.009 |
| CCN(CCCCOC(=O)c1ccc(OC)c(OC)c1)C(C)Cc1ccc(OC)cc1 (stereo not drawn) [Mebeverine hydrochloride] | -0.02 |
| CCOC(=O)n1ccn(C)c1=S [Carbimazole] | -2.481 |
| CCCCC(CC)CN1CN(CC(CC)CCCC)CC(C)(N)C1 (stereo not drawn) [Hexetidine] | -1.294 |
| CC(=O)O[C@H]1C[C@H](O[C@H]2[C@@H](O)C[C@H](O[C@H]3[C@@H](O)C[C@H](O[C@H]4CC[C@@]5(C)[C@H](CC[C@@H]6[C@@H]5C[C@@H](O)[C@]5(C)[C@@H](C7=CC(=O)OC7)CC[C@]65O)C4)O[C@@H]3C)O[C@@H]2C)O[C@H](C)[C@H]1O[C@@H]1O[C@H](CO)[C@@H](O)[C@H](O)[C@H]1O [Lanatoside C] | 0.543 |
| O=C(O)Cc1ccc(-c2ccccc2)cc1 [Felbinac] | 0.963 |
| CNC[C@H](O)[C@@H](O)[C@H](O)[C@H](O)CO [Meglumine] | -2.195 |
| C=C1CC[C@@]2(O)[C@H]3Cc4ccc(O)c5c4[C@@]2(CCN3CC2CC2)[C@H]1O5 [Nalmefene hydrochloride] | -0.048 |
| CN1CCN(CCCN2c3ccccc3Sc3ccc(Cl)cc32)CC1 [Prochlorperazine dimaleate] | -0.656 |
| CC(=O)OCC(CCn1cnc2cnc(N)nc21)COC(C)=O [Famciclovir] | -0.314 |
| COc1ccc(OC)c(C(O)C(C)N)c1 (stereo not drawn) [Methoxamine hydrochloride] | 3.085 |
| [H]/N=C(/N)N[C@H]1[C@H](O)[C@@H](O)[C@H](O[C@@H]2O[C@@H](C)[C@](O)(C=O)[C@H]2O[C@@H]2O[C@@H](CO)[C@H](O)[C@@H](O)[C@@H]2NC)[C@@H](N/C(N)=N\[H])[C@@H]1O [Streptomycin sulfate] | -7.065 |
| CN1CC2c3ccccc3Oc3ccc(Cl)cc3C2C1 (stereo not drawn) [Asenapine maleate] | -3.064 |
| Cc1cc(O)c(C(=O)N[C@@H](C(=O)N[C@@H]2C(=O)N3C(C(=O)O)=C(CSc4nnnn4C)CS[C@H]23)c2ccc(O)cc2)cn1 [Cefpiramide] | -0.568 |
| CC1=C(CC(=O)O)c2cc(F)ccc2/C1=C\c1ccc([S+](C)[O-])cc1 (stereo not drawn) [Sulindac] | -2.235 |
| CCN(CC)CCOC(=O)C(Cc1cccc2ccccc12)CC1CCCO1 (stereo not drawn) [Nafronyl oxalate] | 1.482 |
| O=C(O)c1cc(/N=N/c2ccc(S(=O)(=O)Nc3ccccn3)cc2)ccc1O [Sulfasalazine] | -3.682 |
| O=C1CCc2ccc(OCCCCN3CCN(c4cccc(Cl)c4Cl)CC3)cc2N1 [Aripiprazole] | -0.69 |
| Oc1cc(Cl)ccc1Oc1ccc(Cl)cc1Cl [Triclosan] | -1.615 |

same assay, conditions: screening Myrcludex B-FITC binding, 10 µM drug, Prestwick library

| SMILES | %NTCP binding |
| --- | --- |
| CS(=O)(=O)O.O=C(O[C@H]1C[C@H]2CC3C[C@@H](C1)N2CC3=O)c1c[nH]c2ccccc12 [Dolasetron mesilate] | 103.338% |

same assay, conditions: screening Myrcludex B-FITC binding, 10 µM drug; B-score

| SMILES | B-score binding assay |
| --- | --- |
| Clc1cc(Cl)c(OCC#CI)cc1Cl [Haloprogin] | 4.032 |
| CN(C(=O)C(Cl)Cl)c1ccc(OC(=O)c2ccco2)cc1 [Diloxanide furoate] | 1.597 |
| NS(=O)(=O)c1cc(C(=O)O)c(NCc2ccco2)cc1Cl [Furosemide] | 1.906 |
| CS(=O)(=O)O.O=C(O[C@H]1C[C@H]2CC3C[C@@H](C1)N2CC3=O)c1c[nH]c2ccccc12 [Dolasetron mesilate] | 1.603 |

target: T1, human NTCP; assay: Screening taurocholate uptake assay (96-well, [14C]taurocholate, 10 µM drug); details: 10 min, read-out: %NTCP activity

| SMILES | remaining activity at 10 µM |
| --- | --- |
| CC1CS(=O)(=O)CCN1/N=C/c1ccc([N+](=O)[O-])o1 (stereo not drawn) [Nifurtimox] | 76.5% |
| CN(C/C=C/c1ccccc1)Cc1cccc2ccccc12 [Naftifine hydrochloride] | 113% |
| CCOC(=O)c1cncn1[C@H](C)c1ccccc1 [Etomidate] | 142% |
